Literature values in patent publication US20240016813A1, “METHODS OF TREATING SYMPTOMS OF CORONAVIRUS INFECTION” (Accencio LLC, priority 2020, published 2024).
Where two headings read alike, the source gives them in different places.

Target: T1, CXCR3 (Homo sapiens, UniProt P49682)
T1 sequence (P49682 1-368): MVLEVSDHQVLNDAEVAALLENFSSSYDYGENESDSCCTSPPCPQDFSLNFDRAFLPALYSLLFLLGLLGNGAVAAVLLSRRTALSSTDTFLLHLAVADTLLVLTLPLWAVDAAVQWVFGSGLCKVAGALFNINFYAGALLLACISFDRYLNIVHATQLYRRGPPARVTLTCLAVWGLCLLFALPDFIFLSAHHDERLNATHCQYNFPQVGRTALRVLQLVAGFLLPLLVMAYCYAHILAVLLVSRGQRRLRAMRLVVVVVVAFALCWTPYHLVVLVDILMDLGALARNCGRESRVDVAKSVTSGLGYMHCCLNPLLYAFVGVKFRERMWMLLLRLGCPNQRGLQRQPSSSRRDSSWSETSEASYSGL

For CCOc1ccc(-n2c(C(C)N(Cc3cccnc3)C(=O)Cc3ccc(OC(F)(F)F)cc3)nc3ncccc3c2=O)cc1 (centres unmarked) [AMG 487, N-(1-(3-(4-ethoxyphenyl)-4-oxo-3,4-dihydropyrido[2,3-d]pyrimidin-2-yl)ethyl)-N-(pyridin-3-ylmethyl)-2-(4-(trifluoromethoxy)phenyl)acetamide], the IC50 (ligand CXCL10, read-out: IC50, inhibits the binding of CXCL10 to CXCR3) is given as 8 nM and the IC50 (ligand CXCL11, read-out: IC50, inhibits the binding of CXCL11 to CXCR3) is given as 8.2 nM.
